Laboratory results from patent US6555547B1, “Method for treating a patient with neoplasia by treatment with a vinca alkaloid derivative” (Cell Pathways, Inc., priority 2000, dated 2003).

Sequences of proteins named here, by UniProt entry; tags and fusion partners are left off.
UniProt O00408, whole entry: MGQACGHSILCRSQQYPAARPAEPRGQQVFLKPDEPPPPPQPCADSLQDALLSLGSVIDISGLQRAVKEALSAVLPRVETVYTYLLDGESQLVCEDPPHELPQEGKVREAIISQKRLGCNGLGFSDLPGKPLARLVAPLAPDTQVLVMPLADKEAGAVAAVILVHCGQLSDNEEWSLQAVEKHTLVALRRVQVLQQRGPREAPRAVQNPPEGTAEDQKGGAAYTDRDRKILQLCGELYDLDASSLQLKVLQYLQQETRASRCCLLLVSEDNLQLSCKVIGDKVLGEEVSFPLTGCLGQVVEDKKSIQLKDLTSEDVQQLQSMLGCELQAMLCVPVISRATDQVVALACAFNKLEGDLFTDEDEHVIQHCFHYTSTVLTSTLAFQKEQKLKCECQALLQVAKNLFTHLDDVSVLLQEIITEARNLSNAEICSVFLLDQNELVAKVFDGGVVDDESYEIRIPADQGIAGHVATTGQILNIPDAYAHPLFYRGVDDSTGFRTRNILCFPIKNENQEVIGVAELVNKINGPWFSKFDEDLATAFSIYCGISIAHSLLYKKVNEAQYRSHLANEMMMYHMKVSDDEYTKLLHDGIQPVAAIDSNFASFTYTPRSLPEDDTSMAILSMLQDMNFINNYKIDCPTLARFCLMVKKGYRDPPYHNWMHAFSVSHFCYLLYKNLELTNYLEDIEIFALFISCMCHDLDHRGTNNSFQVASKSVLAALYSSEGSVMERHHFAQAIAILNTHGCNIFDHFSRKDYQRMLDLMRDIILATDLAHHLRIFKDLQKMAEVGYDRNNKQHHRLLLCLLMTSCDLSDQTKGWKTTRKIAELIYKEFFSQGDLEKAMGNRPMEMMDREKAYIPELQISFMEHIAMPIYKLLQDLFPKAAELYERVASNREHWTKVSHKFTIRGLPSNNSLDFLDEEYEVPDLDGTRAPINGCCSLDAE

Target: T1, novel cGMP-specific PDE Peak B (Section IIB) from SW480 cells (Homo sapiens, UniProt O00408)
T1 construct: IC50 Peak B (μM); native enzyme
Experiment: Inhibition of cGMP hydrolysis by novel PDE Peak B from SW480
Type: biochemical

`CCCc1nn(C)c2c(=O)[nH]c(-c3cc(S(=O)(=O)N4CCN(C)CC4)ccc3OCC)nc12` [Sildenafil, sildenafil] showed an IC50 of over 10 µM.
